Reference: the kinase profiling compilation of Christmann-Franck et al. (2016)

Chains of the proteins cited; added tags and fusions are not shown. Lines headed by an entry give the natural chain unless they say otherwise; changes in a name come on top.
UniProt P53779: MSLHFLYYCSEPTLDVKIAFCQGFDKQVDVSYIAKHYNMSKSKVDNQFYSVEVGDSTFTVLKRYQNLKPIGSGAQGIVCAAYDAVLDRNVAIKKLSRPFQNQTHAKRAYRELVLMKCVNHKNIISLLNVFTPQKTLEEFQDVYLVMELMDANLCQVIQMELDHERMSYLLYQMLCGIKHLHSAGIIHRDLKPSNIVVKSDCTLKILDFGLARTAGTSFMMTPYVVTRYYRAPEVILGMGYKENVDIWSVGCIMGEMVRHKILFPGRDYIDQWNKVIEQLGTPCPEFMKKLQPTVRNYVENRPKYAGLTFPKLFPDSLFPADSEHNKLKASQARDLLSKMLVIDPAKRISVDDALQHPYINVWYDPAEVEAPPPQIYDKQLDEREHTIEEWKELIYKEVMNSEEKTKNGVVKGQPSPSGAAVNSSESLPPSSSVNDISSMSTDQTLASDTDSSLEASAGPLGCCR

Target: MAPK10 (human) (UniProt P53779)
Test: KINOMEscan competition binding

In the case of O=C1c2ccccc2-c2n[nH]c3cccc1c23, the Kd is reported as 22 nM.
